Paper PMC4316792, “The dehydrogenase region of the NADPH oxidase component Nox2 acts as a protein disulfide isomerase (PDI) resembling PDIA3 with a role in the binding of the activator protein p67^phox” (Frontiers in Chemistry, 2015)

System: NusA-Nox2(357–570)
Test: Inhibition of PDI reductase activity of NusA-Nox2(357–570), DE-GSSG reduction
Conditions: 50 μM

O=[As]c1ccccc1 (stereo not shown)
effect on DTT-dependent disulfide reductase activity of NusA-Nox2(357–570): abolished
